Measured values from patent publication US20250032635A1, “LIGAND-POLAR DRUG CONJUGATES” (priority 2023, published 2025).

Assays:
SK-BR-3 = test: In vitro cytotoxicity assay, SK-BR-3; type: cell-based; settings: SK-BR-3, HER2+++; Table 2
Text: (§1) Breast cancer cell line MDA-MB-231 and SK-BR-3, gastric cancer cell line NCI-N87, ovarian cancer cell line SK-OV-3, and pancreatic cancer cell line Capan-1 were purchased from ATCC. Breast cancer cell line JIMT-1 was purchased from Deutsche Sammlung von Mikroorganismen und Zellkulturen (DSMZ, Germany). Gastric cancer cell line MKN45 was purchased from RIKEN. Human umbilical vein endothelial cell line (HUVAC) was purchased from BCRC (Bioresource Collection and Research Center, Hsinchu City, Taiwan).
Human MDR1 overexpressed NCI-N87 (NCI-N87-hMDR1) cell line was produced by lentiviral vector-mediated gene transduction. Briefly, the lentiviral transfer vector contains both hEF1α promotor-driven hMDR1 coding sequence (CDS) and hPGK promoter-driven EGFP-IRES-Puro bicistronic cassette. The lentivirus was packaged using second-generation lentiviral system in 293T cell line. After transfection, stable NCI-N87-hMDR1 was selected and maintained in puromycin (0.55 μg/mL) containing RPMI-1640 medium. JIMT-1 and MDA-MB-231 were maintained in DMEM supplemented with 10% heat-inactivated fetal bovine serum (FBS). […]
(§2) In vitro cytotoxicity assays were performed as previously described (Boyd and Paull, 1995; Phillips et al., 2008). […] IC50, the half maximal inhibitory concentration, was calculated from dose-response curves which was generated by four-parameter curve fitting.

NCI-N87 = test: In vitro cytotoxicity assay, NCI-N87; type: cell-based
Text: as §1
(§3) Human MDR1 overexpressed NCI-N87 (NCI-N87-hMDR1) cell line was produced by lentiviral vector-mediated gene transduction. Briefly, the lentiviral transfer vector contains both hEF1α promotor-driven hMDR1 coding sequence (CDS) and hPGK promoter-driven EGFP-IRES-Puro bicistronic cassette. The lentivirus was packaged using second-generation lentiviral system in 293T cell line. After transfection, stable NCI-N87-hMDR1 was selected and maintained in puromycin (0.55 μg/mL) containing RPMI-1640 medium. JIMT-1 and MDA-MB-231 were maintained in DMEM supplemented with 10% heat-inactivated fetal bovine serum (FBS). NCI-N87, NCI-N87-hMDR1, SK—OV-3, and MKN45 were maintained in RPMI-1640 supplemented with 10% heat-inactivated FBS. SK-BR-3 was maintained in McCoy's 5A supplemented with 10% heat-inactivated FBS. Capan-1 was maintained in IMDM supplemented with 20% heat-inactivated FBS. HUVAC was maintained in M199 supplemented with 25 U/mL heparin, 30 μg/mL ECGS and 10% heat-inactivated FBS. All cell lines were cultured at 37° C. under 5% CO2 atmosphere.
(§4) In Vitro Cytotoxicity Assays of APDCs
(§5) In vitro cytotoxicity assays were performed as previously described (Boyd and Paull, 1995; Phillips et al., 2008). GI50 was calculated as [(Ti−Tz)/(C−Tz)]×100=50, in which “Tz” represents the cell population at DO; “Ti” represents the cell populations of different ADC concentration groups at D3; and “C” represents the cell population of vehicle group at D3. IC50, the half maximal inhibitory concentration, was calculated from dose-response curves which was generated by four-parameter curve fitting.

JIMT-1 = test: In vitro cytotoxicity assay, JIMT-1; type: cell-based; settings: JIMT-1, HER2++
Text: as §1
(§6) Human MDR1 overexpressed NCI-N87 (NCI-N87-hMDR1) cell line was produced by lentiviral vector-mediated gene transduction. Briefly, the lentiviral transfer vector contains both hEF1α promotor-driven hMDR1 coding sequence (CDS) and hPGK promoter-driven EGFP-IRES-Puro bicistronic cassette. The lentivirus was packaged using second-generation lentiviral system in 293T cell line. […]
as §5

Capan-1 = test: In vitro cytotoxicity assay, Capan-1; type: cell-based; settings: Capan-1, HER2++
Text: as §1, §6, §5

MKN45 = test: In vitro cytotoxicity assay, MKN45; type: cell-based; settings: MKN45, HER2+
Text: as §1, §6, §5

MDA-MB-231 = test: In vitro cytotoxicity assay, MDA-MB-231; type: cell-based; settings: MDA-MB-231, HER2+
Text: as §1, §6, §5

NCI-N87-hMDR1 = test: In vitro cytotoxicity assay, MDR1-overexpressing NCI-N87-hMDR1; type: cell-based
Method: as §3, §4, §2

JIMT-1 xenograft = JIMT-1 xenograft tumor model, cytotoxic APDCs; type: in vivo, mice; settings: single intravenous injection 10 mg/kg at day zero
Method: Xenograft Tumor Model Experiments for Cytotoxic APDCs
Experiments of xenograft tumor model with cytotoxic APDCs were performed as previously described (Jumbe et al., 2010).

## Enhertu
SK-BR-3
  IC50: 0.00023 µM
NCI-N87; NCI-N87, HER2+++, Table 2
  IC50: 0.00097 µM
NCI-N87; NCI-N87, HER2+++, Table 3
  GI50: 0.012 µM
NCI-N87; NCI-N87, Table 4 (MDR1 comparison)
  IC50: 0.0031 µM
NCI-N87; NCI-N87, Table 5 (MDR1 comparison)
  GI50: 0.049 µM
JIMT-1; Table 2
  IC50: > 1 µM
JIMT-1; Table 3
  GI50: > 1 µM
Capan-1; Table 2
  IC50: > 1 µM
Capan-1; Table 3
  GI50: 0.056 µM
MKN45; Table 2
  IC50: 0.371 µM
MKN45; Table 3
  GI50: 1.04 µM
MDA-MB-231; Table 2
  IC50: > 1 µM
MDA-MB-231; Table 3
  GI50: > 1 µM
NCI-N87-hMDR1; Table 4
  IC50: 0.036 µM
NCI-N87-hMDR1; Table 5
  GI50: > 1 µM
JIMT-1 xenograft
  tumor volume as a function of time (FIG. 1): significant tumor growth
